Measured values: patent publication US9371387B2, “Composition for prevention or treatment of ischemic cardiac disease, comprising inhibitor against age-albumin synthesis or release of mononuclear phagocyte system cells as active ingredient” (GACHON UNIVERSITY OF INDUSTRY-ACADEMIC COOPERATION …, priority 2011, dated 2016)

How the values were obtained:
[1] = system: human cardiomyocytes; assay: Cell viability (MTT assay) of cardiomyocytes treated with albumin or AGE-albumin; format: cell-based; details: human cardiomyocytes, 0, 1, 10, 20 μg/mL, 24 hours, FIGS. 6A and 6B
Experimental: Cardiomyocytes were suspended in DMEM (culture medium) containing 5% FBS, 5% HS (horse serum), […] gentamicin and 2.5 mg/mL amphotericin B, plated at a density of 1×10^6 cells/mL (10 mL) into 10 cm culture dishes, and maintained at 37° C. in a 5% CO2/95% atmosphere in an incubator. After 3 weeks of in vitro culture, the cells were treated with AGE-albumin and used in analyzing apoptosis-related properties.
(§1) Human cardiomyoctes were seeded at a density of 2×10^3 cells/well into 96-well plates. When reaching 80% confluence, the human cardiomyoctes were treated with various concentrations (0, 1, 10, 20 μg/mL) of albumin or AGE-albumin. After 24 hours of treatment, the cells were rinsed with PBS and examined for viability using an MTT [3-(4,5-dimethylthiazol-2-yl)-2,5-diphenyl tetrazolium bromide] assay. Absorbance in each well was read at 540 nm on a 96-well plate reader (VERSA Max, Molecular Devices) (FIGS. 6A and 6B). FIG. 6A is a graph of cell viability at various concentrations of albumin applied to cardiomyocytes while FIG. 6B is a graph of cell viability at various concentrations of AGE-albumin applied to cardiomyocytes.

[2] = system: blood monocytes of myocardial infarction rats; assay: Immunohistochemistry of AGE-albumin in blood monocytes of myocardial infarction rats; format: in vivo, rat; details: myocardial infarction rats administered with sRAGE; FIG. 5
Experimental: (§2) Sprague-Dawley rats, each weighing 250-300 g, were prepared, and anaesthetized with a combination of ketamine (50 mg/kg) and xylazine (4 mg/kg). A 16-gauge catheter was inserted into the bronchus and connected with an artificial respirator. After the animal was fixed with a tape against a flat plate to secure the limbs and the tail, a 1 to 1.5 cm vertical incision was made left from the sternum, and the pectoralis major muscle was separated from the pectoralis minor muscle to ascertain the space between the 5th and 6th ribs. Then, the muscle therebetween was carefully 1 cm incised in a widthwise direction. […]
Immunohistochemistry was conducted on heart tissues from normal or myocardial infarction rats. […] After washing the secondary antibodies three times with PBS, coverslips were mounted onto glass slides using the Vectashield mounting medium (Vector Laboratories), and observed under a laser confocal fluorescence microscope (LSM-710, Carl Zeiss) (FIG. 4). […]
To examine the distribution and expression position of AGE-albumin in blood monocytes of rats, rats with myocardial infarctions were administered with sRAGE and blood monocytes from the rats were stained using immunohistochemistry for albumin (green), AGE (red), and DAPI (blue), followed by observation under a laser confocal fluorescence microscope (FIG. 5). […]

[3] = system: human cardiomyocytes; assay: Protective effect of sRAGE against AGE-albumin-induced cell death, in vitro assay; format: cell-based; details: co-treatment with sRAGE and AGE-albumin; FIG. 7
Experimental: as §1
To investigate the protective effect of sRAGE against AGE-albumin-induced cell death, human cardiomyocytes were treated with sRAGE alone, AGE-albumin alone or a combination of sRAGE/AGE-albumin, followed by reading absorbance at 540 nm (FIG. 7). FIG. 7 is a graph showing the protective effect of sRAGE on cardiomyocytes treated with AGE-albumin.

[4] = system: cardiomyocytes in rat heart tissues; assay: Protective effect of sRAGE in myocardial infarction rats, cresyl violet staining of heart tissue; format: in vivo; details: sRAGE injected into heart tissue, FIG. 8
Experimental: as §2, with “direction. A retractor was pushed in between the 5th and 6th ribs which were then separated further from each other. Since the upper part of the heart is typically covered with the thymus in rats, the thymus was pulled to the head using an angle hook to clearly view the heart. The figure of the left coronary artery was scrutinized to determine the range of artery branches to be tied.” for “direction.”
To investigate the protective effect of soluble RAGE (sRAGE) on hypoxia-induced apoptosis of cardiomyocytes, sRAGE was injected into the heart tissue of rats. The relative levels of cardiomyocytes in rat heart tissues were evaluated by cresyl violet staining before microscopy (FIG. 8).

| Substance | cell viability [1] | albumin and AGE in blood monocytes [2] | viability of the human cardiomyocytes [3] | relative levels of cardiomyocytes in the heart tissues [4] |
| --- | --- | --- | --- | --- |
| AGE-albumin: a combination of albumin and AGE (advanced glycation end-product) | decreases with an increase in AGE-albumin concentration | – | – | – |
| albumin: multifunctional plasma protein, applied alone to cardiomyocytes as comparison | remained almost unchanged | – | – | – |
| sRAGE: soluble RAGE (sRAGE), described as a soluble antibody to AGE-albumin | – | decrease | increased | dramatically increased |
